Test results published in ChEMBL document CHEMBL1134345, “Coumarin and chromen-4-one analogues as tautomerase inhibitors of macrophage migration inhibitory factor: discovery and X-ray crystallography” (J Med Chem, 2001).
pKi: −log10 of the molar value.

Target: T1, Macrophage migration inhibitory factor (Homo sapiens, UniProt P14174)
T1 sequence (P14174 whole entry): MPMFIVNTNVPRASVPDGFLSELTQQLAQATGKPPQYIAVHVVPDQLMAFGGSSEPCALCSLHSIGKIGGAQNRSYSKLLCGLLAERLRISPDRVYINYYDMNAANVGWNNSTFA
Assay: Inhibitory activity against tautomerase macrophage migration inhibitory factor (MIF)
Summary of the method: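 Recombinant human MIF at 4 ug/mL final, in sodium phosphate buffer pH 6.0. Inhibitors were added in DMSO (1% v/v final). The reaction was started with freshly made D-dopachrome (D-DOPA oxidized with periodate, 1:2) at 0.25–0.5 mM. The A475 decrease was followed for 10 min. Initial rates were corrected for the uncatalyzed rate without MIF. Ki came from three-dimensional nonlinear regression.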

pKi: 6.30
SMILES: O=c1oc2cc(O)ccc2cc1-c1cc2ccccn2n1
